Laboratory results from publication PMC3794474 (Journal of medicinal chemistry, 2011).

Tested on: picrotoxin binding site on GABAA receptors
Experiment: [35S]-TBPS displacement

For `C[C@]12CC[C@@H](O)C[C@@H]1CC[C@@H]1[C@@H]2C(=O)C[C@]2(C)/C(=C\C#N)CC[C@@H]12` [Compound 6a, [3α,5α,17(20)Z]-3-Hydroxy-11-oxopregn-17(20)-ene-21-nitrile], the “[35S]-TBPS displacement potency relative to steroid 2” value (more potent than steroid 2 (ratio of IC50 values)) was ~ 17 fold and the “[35S]-TBPS displacement potency relative to steroid 6b” value (more potent than steroid 6b (ratio of IC50 values)) was ~ 16 fold.
